# scFv variants of Ab-14 (heavy chain) against a SARS-CoV-2 spike peptide

Values reported by Engelhart et al. 2022, doi:10.1038/s41597-022-01779-4 (FLAb copy).

Target: peptide PDVDLGDISGINAS, taken from heptad repeat 2 (HR2) of SARS-CoV-2 spike.

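Library AAYL49 holds single substitutions and randomly drawn double and triple substitutions in the CDRs. The assay is AlphaSeq: two haploid yeast populations carry antibody and antigen on their surface. The frequency of each diploid, read from paired DNA barcodes, reflects how well the two displayed proteins bind. Each replicate has its own calibration line, from reference interactions of the BCL2 family. The assay was run in three technical replicates.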

The variants keep the light chain, the linker and the frameworks of Ab-14 (scFv order VH, a 15-residue (Gly4Ser)3 linker, VL).
VH: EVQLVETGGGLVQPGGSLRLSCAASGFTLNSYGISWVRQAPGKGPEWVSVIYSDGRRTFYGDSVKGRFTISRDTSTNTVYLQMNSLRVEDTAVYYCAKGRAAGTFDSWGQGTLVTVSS
VL: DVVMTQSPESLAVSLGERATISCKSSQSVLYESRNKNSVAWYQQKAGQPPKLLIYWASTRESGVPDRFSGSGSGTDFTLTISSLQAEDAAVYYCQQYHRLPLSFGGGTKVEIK

The parent's heavy chain CDRs are GFTLNSYGIS, VIYSDGRRTFYGDSVK, GRAAGTFDS; each variant's own CDRs replace them letter for letter. Every variant below is changed at G103 of the VH (sequential numbering). Each Kd is an estimate from the mating assay, the geometric mean of the replicates in which the pair was seen; lower is stronger. "no signal" means that the variant was in the library but no mating with the target was seen in any replicate; the authors take this as a sign of poor binding, and no number exists. Three control strains display no target. For library AAYL49, 15% of the pairings with them gave a signal, with a median of 11 µM and one signal in twenty below 680 nM, so weak values seen in few replicates may be background.

With GFTLNSYGIS, VIYSDGRFTFYGDSVK, GRAAKTQDS the result was no signal (0 of 3 replicates).
With GFTLNSYGIS, VIYSDGRRTFYGESVK, GRAAPTFDS the result was no signal (0 of 3 replicates).
With GFTLNSYGIS, VIYSDKRRTFYGDSVK, GRAAPTTDS the result was no signal (0 of 3 replicates).
With GFTLNSYGIS, VIYADGRRTFYGDSVT, GRAANTFDS the result was 9.1 nM (3 of 3 replicates).
With GFTLNSYGIS, VIYSDGRRTFYGDDVC, GRAATTFDS the result was 230 µM (1 of 3 replicates).
With GFTLNSYGIL, VIYSDGRRTFYGDSVK, GRAAQTFDS the result was 3.3 µM (1 of 3 replicates).
With GFTLNSYGIS, VIYSDGRRRFYGDSSK, GRAAPTFDS the result was no signal (0 of 3 replicates).
With GFTLNSYGIS, VAYSDGRRTFYGDSAK, GRAALTFDS the result was no signal (0 of 3 replicates).
With GFTLNSYGIS, VIYSDGRRTFFGDSVK, GRAAYTFDS the result was 430 nM (3 of 3 replicates).
With GFTLNSYGIS, RIYSDGRRTFYRDSVK, GRAAETFDS the result was no signal (0 of 3 replicates).
With GFTLNSYGIS, VIYSDGRRTFYGDSVK, GRAAETSYS the result was 1.7 µM (1 of 3 replicates).
With GFTLNSYGIS, DIYSDGIRTFYGDSVK, GRAANTFDS the result was no signal (0 of 3 replicates).
With GFTANSYGIS, VIYSDGRRTFYGDTVK, GRAALTFDS the result was 1.5 µM (1 of 3 replicates).
With GFTLNRYGIS, VIYSDGRRTFYGKSVK, GRAARTFDS the result was no signal (0 of 3 replicates).
With GFTLNSYGIS, VIYSDGRRTFYGDSVT, GRAANTFQS the result was no signal (0 of 3 replicates).
With GFTLNSYGIS, VIYSDGRRTFYGNSVK, GRAALTFDQ the result was no signal (0 of 3 replicates).
With GFTLNSYGIS, VIYSDGRRTFYWDSVK, GRNANTFDS the result was 7.0 µM (2 of 3 replicates).
With GFTLNSYGIS, TIYSDGRRTFRGDSVK, GRAATTFDS the result was no signal (0 of 3 replicates).
With GFTLNSLGIS, VIYSDGRRTCYGDSVK, GRAAITFDS the result was 24 µM (2 of 3 replicates).
With GPTLNSYGIS, VIYRDGRRTFYGDSVK, GRAAITFDS the result was 110 nM (1 of 3 replicates).
With GFTLSSYGIS, VIYSDGRRTFYGDSVK, GRADKTFDS the result was no signal (0 of 3 replicates).
With GFTLNSYGIS, VIYSDGRRTFYGDTVK, GRAAITFDS the result was 630 nM (1 of 3 replicates).
With GFTLNSYGIS, VIYSDGRRTFYGDSVK, GRAAWIFDN the result was 4.9 nM (3 of 3 replicates).
With GFDRNSYGIS, VIYSDGRRTFYGDSVK, GRAAWTFDS the result was 13 µM (2 of 3 replicates).
With GFTLNSYGIS, VIYSDGRRTFYGDSVK, GRAAKTFNS the result was 34 µM (3 of 3 replicates).
With GFTLNSYHIS, VIYSPGRRTFYGDSVK, GRAARTFDS the result was no signal (0 of 3 replicates).
With GATLNSYGIS, VIYSDGRRTQYGDSVK, GRAADTFDS the result was 13 µM (1 of 3 replicates).
With GFTLNSYGIS, VIVSDGRRTFYGDSVK, GRAATTFDP the result was 28 µM (2 of 3 replicates).
With GFTLNSYGIS, VIYSDGRRTFYGDHVK, GRAAATRDS the result was 150 µM (2 of 3 replicates).
With GFTLNSYGIS, VIYSDGRPTNYGDSVK, GRAAQTFDS the result was 38 µM (1 of 3 replicates).
With GFTLNSYGIS, VIYSDGRRTFYGDSVK, YLAARTFDS the result was no signal (0 of 3 replicates).
With GFDLISYGIS, VIYSDGRRTFYGDSVK, GRAAYTFDS the result was 420 nM (3 of 3 replicates).
With GFTLNAYGIE, VIYSDGRRTFYGDSVK, GRAAITFDS the result was no signal (0 of 3 replicates).
With GFTLKSYGIS, VIYSDGRRTFYGDCVK, GRAARTFDS the result was no signal (0 of 3 replicates).
With GFTLNSYGIS, VIYSDGRRTFYGDSVK, GRAAQTFDS the result was no signal (0 of 3 replicates).
With GFTLNSYGIS, VIYSDGRRTFYGSSVK, GRAITTFDS the result was no signal (0 of 3 replicates).
With GFTLNSYGIS, VIYSDGRRFFYGDSVK, GCAASTFDS the result was 13 µM (3 of 3 replicates).
With GFTLNSYGLS, VIYSDGRRTFYGDSVK, GRAACTFDS the result was 18 µM (1 of 3 replicates).
With GFTLNSYGIY, VIYSDGRRTFYGDSVK, GRAAYTFDS the result was no signal (0 of 3 replicates).
With GFTLNSYGIS, VAYSDGRRTFYRDSVK, GRAAWTFDS the result was no signal (0 of 3 replicates).
With GFTCNRYGIS, VIYSDGRRTFYGDSVK, GRAAVTFDS the result was no signal (0 of 3 replicates).

A selection of 7 entries from above:

CDR-H1	CDR-H2	CDR-H3	apparent Kd	replicates with signal
GFTLNSYGIS	VIYSDGRRRFYGDSSK	GRAAPTFDS	no signal	0 of 3
GFTLNSYGIS	VIYSDGRRTFYWDSVK	GRNANTFDS	7.0 µM	2 of 3
GFTLNSYGLS	VIYSDGRRTFYGDSVK	GRAACTFDS	18 µM	1 of 3
GFTLNSYGIS	VIYSDGRRTFYGDTVK	GRAAITFDS	630 nM	1 of 3
GFDRNSYGIS	VIYSDGRRTFYGDSVK	GRAAWTFDS	13 µM	2 of 3
GFTLNSYGIS	VIYSDGRRTFYGDSVK	GRAAWIFDN	4.9 nM	3 of 3
GPTLNSYGIS	VIYRDGRRTFYGDSVK	GRAAITFDS	110 nM	1 of 3